Measured values taken from the supplement of paper PMC10326909.

Test: ESI positive response factor (isotope-corrected peak area per molar concentration) in SFC/ESI/HRMS (area units per M); higher = higher ionization efficiency
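Also: standards in acetonitrile/water run in triplicate on a zwitterionic HILIC column, CO2–methanol gradient containing 20 mmol/L ammonium acetate, postcolumn makeup flow, Orbitrap full-scan detection.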

OCCOCCOCCOCCO [Tetraethylene glycol]
Settings	ESI positive response factor
0.0122 µM	1.13e+18
0.0244 µM	5.16e+17
0.061 µM	3.3e+17
0.122 µM	2.2e+17
0.244 µM	2.18e+17
0.61 µM	1.82e+17
